# Measurements published in PubChem BioAssay AID488899 (Broad Institute, 2010).
# Only a part is listed here, and it is no random draw. Calls of active or inactive are those of the source.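 Rule for the calls: active = mean inhibition across replicates of 60% or more, whatever share of single replicates reaches that level; inconclusive = some that reach 60%, reason not given; inactive = mean inhibition across replicates below 60%.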
# Experiment: MITF transcriptional activity suppression – cell-based, SK-MEL-5, single point, luciferase, primary screen (AID 488899)
# Settings: SK-MEL-5 TRPM1 promoter luciferase, 24 h; at 12.5 µM; hits give high values
row,Compound,inhibition
1,CC(C)CC(=O)NC(Sc1ccc(Cl)cc1)C(Cl)(Cl)Cl (stereo unspecified),inactive: 2.1%
2,Nc1cc(N)c2nonc2c1[N+](=O)[O-],inactive: 9.85%
3,Oc1ccccc1CNc1ccccn1,inactive: -13.6%
4,O=C(NC(Sc1ccncn1)C(Cl)(Cl)Cl)c1ccccc1 (stereo unspecified),inactive: 8.87%
5,NC(=O)c1cc([N+](=O)[O-])cc([N+](=O)[O-])c1N,inactive: 5.96%
6,CN(C(=O)Cc1ccc(Cl)c(Cl)c1)[C@H]1CCCC[C@H]1N1CCCC1,inactive: -11.9%
7,Cc1ccc(N/C(=N/P(=O)(N2CCOCC2)N2CCOCC2)N2CCOCC2)cc1,inactive: 4.52%
8,COc1ccccc1OP(=O)(Nc1ccc(C)cn1)Oc1ccccc1OC,inactive: 8.47%
9,Clc1ccc(Cl)c(NC2=NCC(CBr)S2)c1 (stereo unspecified),inactive: 9.71%
10,CN1CCCC(OC(=O)C(c2ccccc2)c2ccccc2)C1 (stereo unspecified),inactive: -0.615%
11,CCN(N=Nc1nonc1N)c1nonc1N,inactive: -6.34%
12,Nc1cccc2ccc([As](=O)(O)O)cc12,inactive: 13.5%
13,O=C(O)c1ccccc1[As](=O)(O)O,inactive: -2.24%
14,CC(=O)Nc1ccc([As](=O)(O)O)cc1,inactive: -7.31%
15,CCCC1OP(N)(=O)OCC1CC (stereo unspecified),inactive: 1.39%
16,O=P(Nc1nc2ccc(Cl)cc2s1)(c1ccccc1)c1ccccc1,inactive: 11.6%
17,CCOP(=O)(Nc1ccccc1)OCC,inactive: 5.18%
18,Cc1cc(SC(NC(=O)c2ccc(F)cc2)C(Cl)(Cl)Cl)ncn1 (stereo unspecified),inactive: -1.63%
19,Cc1ccc(NP(=O)(Oc2ccccc2F)Oc2ccccc2F)nc1,inactive: -0.296%
20,CN(C(=O)Cc1ccc(Cl)c(Cl)c1)[C@H]1CCCC[C@@H]1N1CCCC1,inactive: -0.549%
21,COC(=O)c1cc2c(s1)N=C(c1ccccc1)N(C)P2(=O)N1CCOCC1 (stereo unspecified),inactive: -0.484%

row,Compound,inhibition
1,CC(=O)NC(SC(=S)N(CC(C)C)CC(C)C)C(Cl)(Cl)Cl (stereo unspecified),inactive: 4.1%
2,Cc1ccc(OP(=O)(Nc2ccccn2)Oc2ccc(C)cc2)cc1,inactive: 18.2%
3,O=C(OC1CN2CCC1CC2)c1ccccc1 (stereo unspecified),inactive: 5.46%
4,CCC(=O)N1C2C3N(C(=O)CC)C1C1N(C(=O)CC)C(C(N1C(=O)CC)N3C(=O)CC)N2C(=O)CC,inactive: -10.2%
5,Cc1ccccc1OP(=O)(Nc1ccccn1)Oc1ccccc1C,inactive: -8.95%
6,CC(NC(=O)COC(=O)C(O)(c1ccccc1)c1ccccc1)c1ccccc1 (stereo unspecified),inactive: 1.39%
7,CN(C)C(=O)Oc1noc2ccccc12,inactive: -6.62%
8,O=c1c2cc([N+](=O)[O-])ccc2[nH]c2c([N+](=O)[O-])cc([N+](=O)[O-])cc12,active: 73.2%
9,CCNC(=S)/N=C(\N)N[N+](=O)[O-],inactive: -0.144%
10,O=C(NC1CCS(=O)(=O)C1)NP(=S)(Oc1ccccc1)Oc1ccccc1 (stereo unspecified),inactive: 4.29%
11,c1ccc(-c2nn[nH]n2)c(-c2nn[nH]n2)c1,inactive: -4.98%
12,Cc1ccc(NP(=O)(Oc2cccc(C)c2)Oc2cccc(C)c2)nc1,inactive: 11.5%
13,O=P1(N(CCCl)CCCl)OCCC2CCCCN21 (stereo unspecified),inactive: 12.1%
14,N#C/C(=C\c1ccc(N(CCBr)CCBr)cc1)C(N)=O,inactive: 4.83%
15,CC(=O)c1ccc(N2CC2c2ccncc2)cc1 (stereo unspecified),inactive: 16.5%
16,COC(=O)C1(C)COP(=O)(NCc2ccccc2)OC1 (stereo unspecified),inactive: -5.23%
17,Cc1ccccc1CN(C)C(=O)COC(=O)C(O)(c1ccccc1)c1ccccc1,inactive: -10.2%
18,C[C@@H]1C=CCP(=O)(Oc2ccccc2)O1 (stereo partly specified),inactive: 1.98%
19,C[C@H]1OP(=O)(Oc2ccccc2)C[C@@H]2O[C@@H]21 (stereo partly specified),inactive: 0.633%
20,CC(=O)Nc1ccc([As](=O)(O)O)c(O)c1,inactive: -2.12%
21,CC(=O)Nc1ccc(Oc2c([N+](=O)[O-])cc([N+](=O)[O-])cc2[N+](=O)[O-])cc1,inactive: 2.09%

row,Compound,inhibition
1,O=P1(Nc2nc3ccc(Cl)cc3s2)COc2ccccc2O1 (stereo unspecified),inactive: -6.54%
2,CCOc1ccc(C2=NCC(CBr)S2)cc1 (stereo unspecified),inactive: -3.49%
3,CCc1cc(O)c([N+](=O)[O-])c(C)c1[N+](=O)[O-],inactive: 1.51%
4,CC(C)(C)C(=O)NC(Sc1ccccc1)C(Cl)(Cl)Cl (stereo unspecified),inactive: -9.14%
5,CC(C)C(=O)NC(Sc1ccccc1)C(Cl)(Cl)Cl (stereo unspecified),inactive: 6.77%
6,O=P(Nc1nccs1)(c1ccccc1)c1ccccc1,inactive: -0.51%
7,c1nnnn1CCn1cnnn1,inactive: 10%
8,O=[N+]([O-])c1ccc(O)c(/C=N/Nc2ccc([N+](=O)[O-])cc2[N+](=O)[O-])c1,inactive: 36.8%
9,CC(=O)NC(SC(=S)N(C)C)C(Cl)(Cl)Cl (stereo unspecified),inactive: 36.1%
10,O=[N+]([O-])c1ncn(CCn2cnc([N+](=O)[O-])n2)n1,inactive: 9.33%
11,O=[As](O)(c1ccccc1)c1ccc(O)cc1,inactive: -1.98%
12,Nc1ccc([As](=O)(O)c2ccc([N+](=O)[O-])cc2)cc1,inactive: -0.198%
13,C(Cc1nn[nH]n1)Cc1nn[nH]n1,inactive: -1.29%
14,O=C(OC1CN2CCC1CC2)c1cccc(Cl)c1 (stereo unspecified),inactive: -9.66%
15,COc1ccc(N)c([N+](=O)[O-])c1[N+](=O)[O-],inactive: -8.62%
16,O=P(Nc1ccccn1)(c1ccc(Br)cc1)c1ccc(Br)cc1,inactive: -0.961%
17,CN(C)C1(CNC(=O)c2ccc(Cl)c(S(N)(=O)=O)c2)CCCCC1,inactive: 6.89%
18,O=P(Nc1nc2ccccc2s1)(c1ccccc1)c1ccccc1,inactive: -7.98%
19,C[C@H]1OP(=O)(Oc2ccccc2)[C@H](O)[C@H](O)[C@H]1N=[N+]=[N-] (stereo partly specified),inactive: 5.3%
